Literature values as cited in US20030171260A1, “Compositions and methods utilizing hydroxamates to scavenge oxidant toxins” (priority 2002, published 2003).
Where a name gives a salt, the structure may show the parent alone.

System: rat

## CC(=O)N(O)CCCCCNC(=O)CCC(=O)N(O)CCCCCNC(=O)CCC(=O)N(O)CCCCCN [desferoxamine mesylate]
intraperitoneal
  intraperitoneal LD50 dose: 330 mg/kg
subcutaneous
  subcutaneous LD50 dose: 5,500 mg/kg
